Source: PubChem BioAssay AID572 (SRMLSC, 2007)
The list shows a part of the results, in another mix than the full data. The source made the active and inactive calls.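 Rule for the calls: active = viability at or below 10% of carrier control in both of two separate runs; inconclusive = viability at or below 10% in only one of the two runs; inactive = the rest.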

Experiment: reduced viability of SK-BR-3 breast cancer cells – cell-based, 24 h, human, pilot screen (AID 572);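 note: compound exposure lasted between 18 and 24 h rather than exactly 24 h; 100% = carrier-treated control wells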
Conditions: SK-BR-3 viability, CellTiter-Glo luminescence, at 10 µM, stronger effect = lower value

Row | SMILES | viability
1 | Cc1ccc(C)c(NP(C)(=O)Oc2ccccc2)c1 (stereo not given) | inactive: 113%
2 | CP(=S)(Nn1cnnc1)Oc1ccccc1 (stereo not given) | inactive: 101%
3 | CP(=O)(Nc1ccccn1)Oc1ccccc1 (stereo not given) | inactive: 88%
4 | CP(=O)(Nc1ccc2c(c1)OCCO2)Oc1ccccc1 (stereo not given) | inactive: 114%
5 | CN(C)CCOC(=O)C(O)(c1ccccc1)C1CCCCC1 (stereo not given) | inactive: 102%
